Laboratory results from patent publication US5221665A, “N-substituted amides” (Boehringer Ingelheim Pharmaceuticals, Inc., priority 1991, dated 1993).

Amino acid sequences for entries named in this document (tags omitted). Residues count along the entry.
UniProt P08311, 21-255 limits assumed: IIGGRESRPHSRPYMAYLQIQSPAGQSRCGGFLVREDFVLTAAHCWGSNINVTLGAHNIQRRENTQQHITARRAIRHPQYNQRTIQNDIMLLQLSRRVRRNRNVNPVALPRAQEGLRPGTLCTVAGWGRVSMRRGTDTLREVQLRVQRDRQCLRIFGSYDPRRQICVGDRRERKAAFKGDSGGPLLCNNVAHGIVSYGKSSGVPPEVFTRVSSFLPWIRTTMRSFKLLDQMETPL
UniProt P00797, 67-406 limits assumed: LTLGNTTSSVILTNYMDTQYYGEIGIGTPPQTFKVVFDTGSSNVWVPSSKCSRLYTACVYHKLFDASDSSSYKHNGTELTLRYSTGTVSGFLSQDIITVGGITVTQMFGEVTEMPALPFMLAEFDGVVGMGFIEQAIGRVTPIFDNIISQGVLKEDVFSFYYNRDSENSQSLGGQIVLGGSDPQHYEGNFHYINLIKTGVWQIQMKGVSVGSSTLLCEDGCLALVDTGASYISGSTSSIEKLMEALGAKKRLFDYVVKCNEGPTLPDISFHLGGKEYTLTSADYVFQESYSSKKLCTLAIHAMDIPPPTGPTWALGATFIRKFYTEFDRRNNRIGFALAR
UniProt P09871, 16-688 limits assumed: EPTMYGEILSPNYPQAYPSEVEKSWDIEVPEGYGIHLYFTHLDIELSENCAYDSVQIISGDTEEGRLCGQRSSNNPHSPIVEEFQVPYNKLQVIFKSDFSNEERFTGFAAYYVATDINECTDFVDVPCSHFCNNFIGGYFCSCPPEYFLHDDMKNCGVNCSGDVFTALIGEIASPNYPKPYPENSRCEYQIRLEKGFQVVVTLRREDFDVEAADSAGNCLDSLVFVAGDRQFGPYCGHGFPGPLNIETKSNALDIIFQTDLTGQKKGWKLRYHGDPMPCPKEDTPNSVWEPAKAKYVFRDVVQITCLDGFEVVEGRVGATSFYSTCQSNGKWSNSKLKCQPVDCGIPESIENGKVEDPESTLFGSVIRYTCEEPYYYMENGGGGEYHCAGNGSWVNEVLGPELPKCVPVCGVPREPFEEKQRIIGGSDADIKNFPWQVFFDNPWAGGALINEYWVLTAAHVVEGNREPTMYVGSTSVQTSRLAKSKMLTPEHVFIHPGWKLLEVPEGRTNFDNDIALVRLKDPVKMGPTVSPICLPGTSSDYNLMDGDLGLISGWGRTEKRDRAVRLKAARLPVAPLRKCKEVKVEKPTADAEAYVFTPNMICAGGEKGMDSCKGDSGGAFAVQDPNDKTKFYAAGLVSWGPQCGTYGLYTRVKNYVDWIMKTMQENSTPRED
UniProt P00750, 36-562 limits assumed: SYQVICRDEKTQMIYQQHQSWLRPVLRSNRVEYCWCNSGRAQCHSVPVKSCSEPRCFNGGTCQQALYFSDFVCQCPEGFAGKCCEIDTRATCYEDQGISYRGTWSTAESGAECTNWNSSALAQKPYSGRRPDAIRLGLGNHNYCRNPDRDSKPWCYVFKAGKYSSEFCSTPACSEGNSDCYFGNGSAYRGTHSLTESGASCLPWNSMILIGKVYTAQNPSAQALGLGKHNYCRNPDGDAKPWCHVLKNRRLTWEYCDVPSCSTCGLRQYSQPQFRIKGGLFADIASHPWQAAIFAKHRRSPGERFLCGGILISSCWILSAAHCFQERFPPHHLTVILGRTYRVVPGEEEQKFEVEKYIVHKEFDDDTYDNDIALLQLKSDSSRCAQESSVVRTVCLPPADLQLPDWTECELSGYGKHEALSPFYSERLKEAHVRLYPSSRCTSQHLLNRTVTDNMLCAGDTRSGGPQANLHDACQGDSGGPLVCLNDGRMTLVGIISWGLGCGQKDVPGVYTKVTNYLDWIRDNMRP

How the values were obtained:
Human Cathepsin G = Human Cathepsin G (Homo sapiens, UniProt P08311); experiment: Selectivity assay: Human Cathepsin G; format: biochemical; settings: IC50 of 5 or greater is considered inactive
Human Cathepsin B = Human Cathepsin B (Homo sapiens, UniProt P07858); experiment: Selectivity assay: Human Cathepsin B; format: biochemical; settings: IC50 of 5 or greater is considered inactive
Human Renin = Human Renin (Homo sapiens, UniProt P00797); experiment: Selectivity assay: Human Renin; format: biochemical; settings: IC50 of 5 or greater is considered inactive
APTT = experiment: Selectivity assay: APTT; settings: IC50 of 5 or greater is considered inactive
Human Urokinase = Human Urokinase (Homo sapiens, UniProt P00749); experiment: Selectivity assay: Human Urokinase; format: biochemical; settings: IC50 of 5 or greater is considered inactive
Human C1 Esterase = Human C1 Esterase (Homo sapiens, UniProt P09871); experiment: Selectivity assay: Human C1 Esterase; format: biochemical; settings: IC50 of 5 or greater is considered inactive
Total Complement = experiment: Selectivity assay: Total Complement; settings: IC50 of 5 or greater is considered inactive
[1] = target: Tissue Plasminogen Activator (Homo sapiens, UniProt P00750); experiment: Selectivity assay: Tissue Plasminogen Activator; format: biochemical; settings: IC50 of 5 or greater is considered inactive
Human Thrombin = Human Thrombin (Homo sapiens, UniProt P00734)

## CC(C)C(NC(=O)CN(C(=O)[C@@H](NC(=O)c1ccc(C(=O)NS(=O)(=O)c2ccc(Cl)cc2)cc1)C(C)C)C1Cc2ccccc2C1)C(=O)C(F)(F)F (stereo partly shown)
Human Cathepsin G
  IC50, Human Cathepsin G: > 7 µg/mL
Human Cathepsin B
  IC50, Human Cathepsin B: > 5 µg/mL
Human Renin
  IC50, Human Renin: > 5 µg/mL
APTT
  IC50, APTT: > 100 µg/mL
Human Urokinase
  IC50, Human Urokinase: > 5 µg/mL
Human C1 Esterase
  IC50, Human C1 Esterase: > 5 µg/mL
Total Complement
  IC50, Total Complement: > 100 µg/mL
PT
  IC50: > 100 µg/mL
[1]
  IC50, Tissue Plasminogen Activator: > 5 µg/mL
Human Thrombin
  IC50: > 5 µg/mL
